Reference: patent US20200129597A1, “MODULATION OF FACTOR Xa INHIBITOR-MEDIATED BLOOD LOSS BY PARTIAL AND TRANSIENT ADMINISTRATION OF ANTIDOTE” (Portola Pharmaceuticals, Inc., priority 2012, published 2020)
“And” between values parts separate entries of the source, which are not always exact repeats. Equal entries are not always repeated.

Columns and labels:
blood loss [1] = test: Rat tail transection model, r-Antidote bolus plus infusion after enoxaparin or fondaparinux; type: in vivo
Procedure: Enoxaparin (4.5 mg/kg) or vehicle was dosed by IV bolus over 5 min, followed by treatment with vehicle or two different doses of r-Antidotc (2 mg/rat bolus plus 2 mg/hr infusion and 4 mg/rat bolus plus 4 mg/hr infusion) starting at 10 min. Blood loss was measured for 15 min as described under Methods section. […] Blood loss was measured as in FIG. 16A. Protamine was dosed as an IV bolus only (0.9 mg/rat). […] The anti-fXa activity in fondaparinux anticoagulated rats (FIG. 16B) at different time points are presented for Treat-I: (not shown in anti-fXa), Treat-II (□), Treat-III (⋄), and Treat-IV (∇). Anti-fXa activity was normalized to the activity of Treat-II at 5 min time point. *** P-value (Treat-III vs. Treat-II)≤0.0001.
In this example, the ability of r-Antidote to restore hemostasis in a rat tail transection model following treatment with enoxaparin or fondaparinux was tested. Unlike in the case of rivaroxaban, administration of enoxaparin or fondaparinux without concomitant administration of anti-platelet agent was sufficient to establish a reproducible pattern of bleeding in the animals. […] In parallel to corrections in blood loss, the anti-fXa activity was reduced in a dose-dependent manner (data not shown).
The collected blood samples were processed by freezing the samples at −80° C. to lyse erythrocytes. Hemoglobin concentration and corresponding blood volume were quantified spectrophotometrically (Absorbance at 490 nm) from a standard curve constructed with known volumes of blood.

Phase 2 trial: safety = test: Phase 2 trial: safety
From the text: (§1) Pharmacodynamic and safety data are collected through Day 48 and PK through Day 10. A chromogenic assay was used to determine anti-fXa activity.

blood loss [2] = test: Mouse tail transection blood loss model; type: in vivo; details: Treat-V: ASA+rivaroxaban+r-Antidote 0.96 mg/mouse IV; mean±SD
Procedure: Mice (n=5-8/group) were first dosed orally with vehicle or aspirin at ˜100 mg/kg/day for 5 days. Rivaroxaban (50 mg/kg) or vehicle (5 mL/kg) was then dosed orally.
For the mouse tail transection blood loss model, mice (male, C57BL/6, Charles River) were first treated with aspirin at ˜100 mg/kg/day for 5 days via drinking water.

[3] = Total and free rivaroxaban concentration in rabbit plasma; type: in vivo; details: r-Antidote-treated group
Procedure: (§2) Anesthetized rabbits were administered vehicle or 1 mg/kg rivaroxaban via IV bolus injection. […] Blood loss due to rivaroxaban anticoagulation represented approximately 10% of the animal's total blood volume. Total rivaroxaban concentration in plasma was measured by LC-MS/MS. Free fraction of rivaroxaban (non-protein, non-r-Antidote bound) was first separated using ultra-filtration followed by LC-MS/MS quantitation. Anti-fXa activity was measured using a modified chromogenic LMW heparin kit. PT and aPTT was measured using commercial reagents (HemosIL).
(§3) Rivaroxaban (1 mg/kg) or vehicle was dosed to anesthetized rabbits by IV bolus over 2 minutes via marginal ear vein catheter. […] Serial blood samples were collected at 0, 30, 35, and 50 minutes post rivaroxaban. Measurements included reduction in blood loss, decrease in unbound rivaroxaban in the plasma using equilibrium dialysis method, anti-fXa activity, PT and aPTT. The method for measuring PT is described previously in Example 6.

[4] = Anti-fXa activity in rivaroxaban anticoagulated rabbits; type: in vivo; details: r-Antidote 75 mg/rabbit, rivaroxaban 1 mg/kg
Procedure: as §2, §3

[5] = Single ascending dose study: safety
prothrombin time (PT) [6] = test: Prothrombin time in human plasma in vitro; type: biochemical
Procedure: The lines represent the best fittings; Kd and Ki values are listed. mOD min^−1=miliOptical Density per minute. […] Grey bar: Control plasma alone (PPP), Filled bar: rivaroxaban or rivaroxaban+r-antidote, Open bar: Control plasma+r-antidote. […] Thrombin generation was initiated by addition of Ca^2+ and tissue factor (TF). Cleavage of thrombin specific substrate Z-GGR-AMC (RFU=Relative Fluorescence Units) was measured at 37° C. for 10 min.
(§4) For human in vitro and rat ex vivo experiments, PT was measured using MLA Electra 800 automatic coagulation timer. Innovin was automatically dispensed to plasma samples (100 μL) per manufacturer's instructions. […] For rabbit experiments, PT and aPTT were measured using a Beckman Coulter ACL Elite instrument with HemosIL reagents (available commercially from Instrumentation Laboratories). Whole blood INR (International Normalized Ratio) for animal samples were measured by Hemchron Jr. Signature Cartridges (International Technidyne Corporation) according to manufacturer's instructions.

[7] = test system: activated partial thromboplastin time (aPTT); test: Activated partial thromboplastin time in rabbit liver laceration model; type: in vivo
Procedure: as §2, §4, §3

blood loss [8] = test: Rabbit liver laceration blood loss model; type: in vivo; details: for effect on blood loss when given alone: in the absence of rivaroxaban
Procedure: Rivaroxaban (1 mg/kg) or vehicle was dosed by IV bolus over 2 minutes via marginal ear vein catheter. […] Riva=Rivaroxaban; g=gram
as §2
Anesthetized rabbits were administered vehicle or 1 mg/kg rivaroxaban via IV bolus injection. […] Blood loss due to rivaroxaban anticoagulation represented approximately 10% of the animal's total blood volume (FIG. 13). As in the rodent model, total and free rivaroxaban concentration in plasma, anti-fXa activity and PT and activated partial thromboplastin times (aPTT) was measured.
as §3

[9] = Phase 2 trial: anti-fXa activity (chromogenic assay) after apixaban and r-Antidote; type: in vivo, human
From the text: as §1

prothrombin time (PT) [10] = test: Prothrombin time in rabbit liver laceration model; type: in vivo
Procedure: as §2, §4
Rivaroxaban (1 mg/kg) or vehicle was dosed to anesthetized rabbits by IV bolus over 2 minutes via marginal ear vein catheter. […] Serial blood samples were collected at 0, 30, 35, and 50 minutes post rivaroxaban. […]

[11] = Single ascending dose study: thrombin generation and anti-fXa activity with exogenous rivaroxaban in subject plasma; type: in vivo, human; details: exogenous rivaroxaban 50 ng/mL added to subject plasma
blood loss [12] = test: Rat tail transection blood loss model, prophylactic r-Antidote after enoxaparin; type: in vivo; details: bolus only and bolus plus infusion regimens, equally effective
Procedure: Then, tail transection was initiated another 5 min later, and cumulative blood loss was measure for up to 45 minutes.

[13] = rivaroxaban rabbits, r-Antidote 75 mg/rabbit, rfVIIa 150 μg/kg

B1: r-Antidote: processed two-chain polypeptide of SEQ ID NO: 3; modified, catalytically inactive human recombinant fXa lacking the Gla domain (protein)
chain: ANSFLFWNKYKDGDQCETSPCQNQGKCKDGLGEYTCTCLEGFEGKNCELFTRKLCSLDNGDCDQFCHEEQNSVVCSCARGYTLADNGKACIPTGPYPCGKQTLERIVGGQECKDGECPWQALLINEENEGFCGGTILSEFYILTAAHCLYQAKRFKVRVGDRNTEQEEGGEAVHEVEVVIKHNRFTKETYDFDIAVLRLKTPITFRMNVAPACLPERDWAESTLMTQKTGIVSGFGRTHEKGRQSTRLKMLEVPYVDRNSCKLSSSFIITQNMFCAGYDTKQEDACQGDAGGPHVTRFKDTYFVTGIVSWGEGCARKGKYGIYTKVTAFLKWIDRSMKTRGLPKAKSHAPEVITSSPLK
modifications: processed two-chain form
**Q.** With B1 as the molecule, how does the “correction in blood loss” value (blood loss [1]; enoxaparin 4.5 mg/kg, r-Antidote 2 mg/rat bolus plus 2 mg/hr infusion) read?
**A.** Its value is 42%.

**Q.** What about the “correction of increase in blood loss” value (blood loss [1]; enoxaparin 4.5 mg/kg, r-Antidote 4 mg/rat bolus plus 4 mg/hr infusion) of the same molecule?
**A.** Its value is “completely corrected the increase in blood loss to baseline levels”.

**Q.** And the effect on bleeding (blood loss [1]; fondaparinux 25 mg/kg, r-Antidote 6 mg/rat bolus plus 6 mg/hr infusion)?
**A.** Its effect on bleeding is “complete cessation of bleeding”.

**Q.** And the “thrombotic or allergic-type adverse events, serious adverse events, deaths” value (Phase 2 trial: safety; first dose cohort, 9 subjects)?
**A.** The value was “no thrombotic or allergic-type adverse events, serious adverse events, or deaths”.

**Q.** What about the “TFPI, F1+F2 and D-dimer” value (Phase 2 trial: safety; in vivo) of the same molecule?
**A.** Its value is “transient reduction in tissue factor pathway inhibitor (TFPI) and increase in F1+F2, but no change in D-dimer”.

**Q.** And the “subjects experiencing one or more adverse events (all mild)” value (Phase 2 trial: safety; in vivo)?
**A.** Its value is 5/9.

**Q.** And the blood loss (blood loss [2])?
**A.** Its blood loss is 163 ± 82 µL.

**Q.** What about the “reduction of unbound fraction of rivaroxaban” value ([3]; 35 minute) of the same molecule?
**A.** The value was 94%.

**Q.** And the “reduction of unbound fraction of rivaroxaban” value ([3]; 50 minute)?
**A.** The value was 70%.

**Q.** What about the “decrease of peak anti-fXa activity” value [4] of the same molecule?
**A.** The value was 98%.

**Q.** What about the “non-serious infusion-related reactions without anaphylaxis (number)” value ([5]; 90 mg (2) and 300 mg (1)) of the same molecule?
**A.** Its value is 3.

**Q.** What about the “thrombotic adverse events or deaths” value ([5]; healthy volunteers, 30-600 mg) of the same molecule?
**A.** The value was “no thrombotic adverse events or deaths”.

**Q.** What about the “Prothrombin fragment 1+2, thrombin-antithrombin complex, and D-dimer” value ([5]; in vivo) of the same molecule?
**A.** Its value is “increased with dose”.

**Q.** What about the “serious adverse events (number)” value ([5]; pneumonia, 30 mg) of the same molecule?
**A.** Its value is 1.

**Q.** What about the “correction of rivaroxaban PT prolongation” value (prothrombin time (PT) [6]; approximately equal molar concentration of r-Antidote, rivaroxaban 1 μM) of the same molecule?
**A.** Its value is “corrected to baseline levels”.

**Q.** And the “effect of r-Antidote alone on clotting time” value (prothrombin time (PT) [6]; highest concentration tested)?
**A.** The value was “did not change clotting time”.

**Q.** What about the “Activated Partial Thromboplastin Times” value ([7]; 0 minutes post rivaroxaban) of the same molecule?
**A.** The value was 28 ± 4 s.

**Q.** And the “Activated Partial Thromboplastin Times” value ([7]; 30 minutes post rivaroxaban (before treatment))?
**A.** The value was 27 ± 4 s.

**Q.** What about the “Activated Partial Thromboplastin Times” value ([7]; 35 minutes post rivaroxaban) of the same molecule?
**A.** The value was 27 ± 3 s.

**Q.** And the “Activated Partial Thromboplastin Times” value ([7]; 50 minutes post rivaroxaban)?
**A.** Its value is 25 ± 3 s.

**Q.** What about the “reduction of aPTT prolongation” value ([7]; rivaroxaban rabbits (Table 8)) of the same molecule?
**A.** Its value is 60%.

**Q.** What about the “decrease (reversal) of aPTT” value [7, 13] of the same molecule?
**A.** The value was 66%.

**Q.** What about the “effect on blood loss when given alone” value (blood loss [8]) of the same molecule?
**A.** The value was “had no effect on blood loss”.

**Q.** What about the “effect on blood loss when given alone” value (blood loss [8]; listed as PRT) of the same molecule?
**A.** Its value is “did not affect blood loss”.

**Q.** What about the “Reduction of blood loss” value (blood loss [8]; r-Antidote 75 mg/rabbit in rivaroxaban (1 mg/kg) treated rabbits, Riva+PRT vs. Riva alone) of the same molecule?
**A.** Its value is > 85% and 76%.

**Q.** What about the “change of mean anti-fXa activity” value ([9]; 10 minutes post r-Antidote 90 mg) of the same molecule?
**A.** Its value is −47%.

**Q.** What about the “change of mean anti-fXa activity” value ([9]; 30 minutes post r-Antidote 90 mg) of the same molecule?
**A.** The value was −29%.

**Q.** And the “change of mean anti-fXa activity” value ([9]; 60 minutes post r-Antidote 90 mg)?
**A.** The value was −17%.

**Q.** And the “change of mean anti-fXa activity” value ([9]; two minutes after r-Antidote 90 mg bolus, apixaban 5 mg bid, n=4)?
**A.** Its value is −65%.

**Q.** And the “reduction of PT prolongation” value (prothrombin time (PT) [10]; 35 minute time point, rivaroxaban rabbits (Table 7))?
**A.** Its value is 81%.

**Q.** And the “decrease (reversal) of PT” value (prothrombin time (PT) [10]; [13])?
**A.** The value was 74%.

**Q.** And the “thrombin generation and anti-fXa activity of rivaroxaban” value [11]?
**A.** The value was “reversed in a dose-dependent manner”.

**Q.** What about the “blood loss compared with vehicle (no enoxaparin)” value (blood loss [12]) of the same molecule?
**A.** The value was “no blood loss greater than vehicle”.
